In ChEMBL document CHEMBL1133627, “4-Anilino-6,7-dialkoxyquinoline-3-carbonitrile inhibitors of epidermal growth factor receptor kinase and their bioisosteric relationship to the 4-anilino-6,7-dialkoxyquinazoline inhibitors” (J Med Chem, 2000):
pIC50: −log10 of the molar value.

Chains of the proteins cited; added tags and fusions are not shown. Lines headed by an entry give the natural chain unless they say otherwise; changes in a name come on top.
UniProt P04626: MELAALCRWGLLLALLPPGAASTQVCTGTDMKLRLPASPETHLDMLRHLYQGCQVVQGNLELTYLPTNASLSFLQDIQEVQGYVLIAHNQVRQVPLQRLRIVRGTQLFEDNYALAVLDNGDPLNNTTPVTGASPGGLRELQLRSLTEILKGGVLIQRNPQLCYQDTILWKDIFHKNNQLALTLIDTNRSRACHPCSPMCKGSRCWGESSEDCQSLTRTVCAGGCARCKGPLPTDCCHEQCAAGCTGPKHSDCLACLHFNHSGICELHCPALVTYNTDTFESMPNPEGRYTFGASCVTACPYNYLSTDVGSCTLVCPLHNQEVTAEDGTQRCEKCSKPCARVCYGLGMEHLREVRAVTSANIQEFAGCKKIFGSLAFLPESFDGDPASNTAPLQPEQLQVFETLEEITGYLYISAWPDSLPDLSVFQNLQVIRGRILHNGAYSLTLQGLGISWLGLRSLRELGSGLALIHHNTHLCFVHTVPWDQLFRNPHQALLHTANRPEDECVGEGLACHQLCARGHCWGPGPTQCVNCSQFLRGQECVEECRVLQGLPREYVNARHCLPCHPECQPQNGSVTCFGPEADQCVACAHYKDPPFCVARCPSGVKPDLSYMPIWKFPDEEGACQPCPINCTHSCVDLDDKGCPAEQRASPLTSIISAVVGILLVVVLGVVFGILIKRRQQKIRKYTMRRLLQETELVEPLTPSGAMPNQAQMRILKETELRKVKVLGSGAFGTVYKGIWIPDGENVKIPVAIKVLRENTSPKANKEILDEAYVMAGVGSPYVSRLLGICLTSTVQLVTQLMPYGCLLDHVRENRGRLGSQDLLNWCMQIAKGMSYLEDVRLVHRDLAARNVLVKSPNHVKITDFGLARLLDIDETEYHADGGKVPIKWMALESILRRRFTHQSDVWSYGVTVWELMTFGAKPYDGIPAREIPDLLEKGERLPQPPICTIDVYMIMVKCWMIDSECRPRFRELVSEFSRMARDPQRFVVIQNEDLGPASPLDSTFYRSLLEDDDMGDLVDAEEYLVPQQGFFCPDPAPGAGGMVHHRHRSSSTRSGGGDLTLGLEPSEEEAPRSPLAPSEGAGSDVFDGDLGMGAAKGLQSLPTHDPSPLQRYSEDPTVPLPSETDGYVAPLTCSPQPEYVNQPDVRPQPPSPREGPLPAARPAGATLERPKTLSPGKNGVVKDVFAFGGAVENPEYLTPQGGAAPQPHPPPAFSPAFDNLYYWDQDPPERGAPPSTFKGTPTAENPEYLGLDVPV
UniProt P00533: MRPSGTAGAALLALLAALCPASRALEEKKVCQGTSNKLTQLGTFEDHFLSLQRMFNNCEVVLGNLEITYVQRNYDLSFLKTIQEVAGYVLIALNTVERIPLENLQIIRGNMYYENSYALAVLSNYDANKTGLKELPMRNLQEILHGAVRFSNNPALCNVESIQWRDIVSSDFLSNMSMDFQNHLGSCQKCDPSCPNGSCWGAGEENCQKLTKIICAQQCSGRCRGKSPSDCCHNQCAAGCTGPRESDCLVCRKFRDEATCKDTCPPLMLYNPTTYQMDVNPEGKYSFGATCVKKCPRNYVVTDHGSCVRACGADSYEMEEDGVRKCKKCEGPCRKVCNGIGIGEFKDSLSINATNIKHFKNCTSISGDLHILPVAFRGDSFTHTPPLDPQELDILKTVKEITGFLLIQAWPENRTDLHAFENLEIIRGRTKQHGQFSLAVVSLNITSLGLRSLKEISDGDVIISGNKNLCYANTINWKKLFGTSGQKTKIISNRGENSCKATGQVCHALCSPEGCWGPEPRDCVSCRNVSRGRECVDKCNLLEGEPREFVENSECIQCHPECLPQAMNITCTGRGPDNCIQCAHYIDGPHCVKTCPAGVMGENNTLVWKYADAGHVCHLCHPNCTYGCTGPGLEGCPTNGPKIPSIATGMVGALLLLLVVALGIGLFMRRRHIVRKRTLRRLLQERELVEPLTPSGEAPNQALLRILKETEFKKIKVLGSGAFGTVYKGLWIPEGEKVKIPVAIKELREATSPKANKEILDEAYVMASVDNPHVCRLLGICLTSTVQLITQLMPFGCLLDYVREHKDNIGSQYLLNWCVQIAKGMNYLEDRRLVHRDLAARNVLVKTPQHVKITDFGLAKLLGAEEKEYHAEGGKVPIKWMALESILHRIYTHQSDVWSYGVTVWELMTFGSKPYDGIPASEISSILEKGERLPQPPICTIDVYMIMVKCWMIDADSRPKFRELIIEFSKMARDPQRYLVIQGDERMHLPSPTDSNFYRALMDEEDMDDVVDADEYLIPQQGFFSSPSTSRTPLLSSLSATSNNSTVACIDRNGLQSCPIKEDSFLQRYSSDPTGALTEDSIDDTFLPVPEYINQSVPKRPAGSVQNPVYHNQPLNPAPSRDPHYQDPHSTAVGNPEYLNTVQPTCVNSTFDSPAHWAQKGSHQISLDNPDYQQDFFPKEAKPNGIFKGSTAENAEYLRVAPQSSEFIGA

How the values were obtained:
[1] = target: Epidermal growth factor receptor and ErbB2 (HER1 and HER2) (Homo sapiens, UniProt P04626+P00533); assay: Concentration needed to inhibit the autophosphorylation of the cytoplasmic domain of Epidermal growth factor receptor using DELFIA/time-resolved fluorimetry.; format: protein assay
A-431 = assay: Concentration needed to inhibit 50% growth of the human A431 (epidermoid carcinoma) cell lines; format: functional, cell-based
SK-BR-3 = assay: Concentration needed to inhibit 50% growth of human SKBr3 (breast carcinoma) cell lines; format: functional, cell-based
SW-620 = assay: Concentration needed to inhibit 50% growth of human SW620 (colon carcinoma) cell lines; format: functional, cell-based

Row | IC50 [1] | pIC50 (A-431) | pIC50 (SK-BR-3) | pIC50 (SW-620) | SMILES
1 | 17.02 µM |  |  |  | COc1cc2ncc(C#N)c(Nc3cc(Cl)ccc3O)c2cc1OC
2 | 6.65 µM | 6.12 | 5.83 | 5.42 | COc1cc2ncc(C#N)c(Nc3ccc(Br)cc3)c2cc1OC
3 | 7.38 µM | 5.13 | 5.29 | 5.20 | COc1cc2ncc(C#N)c(Nc3cccc(C(C)=O)c3)c2cc1OC
4 | 0.36 µM | 4.88 | 4.79 | 5.30 | COc1cc2ncc(C#N)c(Nc3ccccc3C(C)C)c2cc1OC
5 | 50.49 µM |  |  |  | COc1ccc(Nc2c(C#N)cnc3cc(OC)c(OC)cc23)cc1OC
6 | 0.54 µM | 6.15 | 6.33 | 5.64 | COc1cc2ncc(C#N)c(Nc3ccc(F)c(Cl)c3)c2cc1OC
7 | 0.87 µM |  |  |  | COc1cc2ncc(C#N)c(Nc3cccc([N+](=O)[O-])c3)c2cc1OC
8 | 0.85 µM | 6.19 | 6.44 | 6.00 | COc1cc2ncc(C#N)c(Nc3cccc(N(C)C)c3)c2cc1OC.Cl
9 | 1.45 µM |  |  |  | COc1cc2ncc(C#N)c(Nc3cccc(C(F)(F)F)c3)c2cc1OC
10 | 0.16 µM | 5.11 | 6.28 | 4.53 | COc1cc2ncc(C#N)c(Nc3ccc(F)c(C(F)(F)F)c3)c2cc1OC.Cl
11 | 15.17 µM | 5.33 | 5.11 | 5.01 | COc1cc2ncc(C(N)=O)c(Nc3cccc(Br)c3)c2cc1OC
